One compound from patent US20240034729A9, “HETEROCYCLIC COMPOUND, INTERMEDIATE, PREPARATION METHOD THEREFOR AND APPLICATION THEREOF” (WUHAN LL SCIENCE AND TECHNOLOGY DEVELOPMENT CO., LTD., priority 2018, published 2024) can be followed below.

Sequences of proteins named here, by UniProt entry; tags and fusion partners are left off. A change or cut given only in a name is not applied to a line headed by its entry.
UniProt P56373: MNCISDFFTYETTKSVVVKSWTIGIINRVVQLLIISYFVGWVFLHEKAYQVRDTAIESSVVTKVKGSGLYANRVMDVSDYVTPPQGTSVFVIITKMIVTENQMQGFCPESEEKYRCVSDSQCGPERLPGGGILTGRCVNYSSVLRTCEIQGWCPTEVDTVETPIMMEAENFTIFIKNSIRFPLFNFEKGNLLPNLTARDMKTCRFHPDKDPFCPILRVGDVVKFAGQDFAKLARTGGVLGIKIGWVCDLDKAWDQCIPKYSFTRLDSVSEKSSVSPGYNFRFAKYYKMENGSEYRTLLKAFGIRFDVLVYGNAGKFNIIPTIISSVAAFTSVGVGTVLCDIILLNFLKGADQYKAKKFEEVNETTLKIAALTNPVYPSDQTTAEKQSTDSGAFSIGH
UniProt Q9UBL9: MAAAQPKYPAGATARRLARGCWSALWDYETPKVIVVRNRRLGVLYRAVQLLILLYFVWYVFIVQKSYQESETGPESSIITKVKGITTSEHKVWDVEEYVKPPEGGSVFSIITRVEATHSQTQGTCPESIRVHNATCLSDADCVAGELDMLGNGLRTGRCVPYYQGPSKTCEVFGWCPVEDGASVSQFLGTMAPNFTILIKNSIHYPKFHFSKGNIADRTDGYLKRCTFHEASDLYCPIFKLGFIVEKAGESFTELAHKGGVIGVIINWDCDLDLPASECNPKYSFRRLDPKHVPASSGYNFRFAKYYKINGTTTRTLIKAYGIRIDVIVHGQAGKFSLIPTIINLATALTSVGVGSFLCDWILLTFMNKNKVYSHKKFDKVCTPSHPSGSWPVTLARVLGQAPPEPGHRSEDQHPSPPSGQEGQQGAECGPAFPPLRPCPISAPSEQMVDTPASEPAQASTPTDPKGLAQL

Test [1] concerns the target hP2X3 (human purinergic P2X receptor subtype 3) (Homo sapiens (Human), UniProt P56373). The test can be described thus: FLIPR calcium assay, hP2X3 expressed in HEK293 cells. The format is cell-based. Conditions: HEK293 cells expressing hP2X3, agonist BZ-ATP 2.5 μM; class symbols; read-out: P2X3 IC50.
Test [2] addresses hP2X2/3 (heterodimeric receptors formed by human purinergic P2X receptors subtype 2 and subtype 3) (Homo sapiens (Human), UniProt P56373+Q9UBL9). The test can be described thus: FLIPR calcium assay, hP2X2/3 expressed in HEK293 cells (P2X2/3 receptor selectivity). The format is cell-based.

`CC(=O)N1CCO[C@@H](Cc2c(-c3c(F)cc(-n4cccn4)cc3F)nc3cc(Cl)ccn23)C1` [Compound 160, (S)-1-(2-((7-chloro-2-(2,6-difluoro-4-(1H-pyrazol-1-yl)phenyl)imidazo[1,2-a]pyridin-3-yl)methyl)morpholino)ethan-1-one]: the IC50 in test [1] is not above 0.01 µM; in test [2] it was more than 60 µM. Besides, in test [2] ((IC50 for P2X2/3)/(IC50 for P2X3), class symbols), the Folds of selectivity result is recorded as “A (A: folds of selectivity >1000)”.

What is called IC50 is the midpoint of a concentration-inhibition curve.
